This test has as its system rat motor neuron cells. As to the kind of experiment: Inhibition of 5HT toxicity in rat motor neuron primary pure culture system. The class given is cell-based. To be noted: compound added 5 to 10 min before 5HT; survival three days after seeding; FIG. 5, FIG. 6. The procedure: Rat motor neuron primary pure culture was carried out in the same manner as in Example 1 to prepare rat motor neuron cells. Based on the results of cell measurement, the rat motor neuron cells were diluted with the culture solution to 1.1 to 1.2×10^4 cells/mL. Greiner 4-well dishes previously coated with poly-L-ornithine/laminin were seeded with the cell suspension at 90 μL/well with a 1 mL Pipetman. One hr after the start of culture, a 5HT1A receptor antagonist NAN-190 (TOCRIS) or a 5HT2A receptor antagonist MDL-11939 (TOCRIS) was added, and serotonin (5HT) was added thereto 5 to 10 min after the addition of the antagonist. The initial viable cell count was measured three hr after the addition of serotonin (5HT). The viable cell count was again measured three days after the cell seeding, and the survival rate was calculated based on the initial viable cell count. […]
Rat motor neuron primary pure culture was carried out in the same manner as in Example 1 to prepare rat motor neuron cells. […] The initial viable cell count was measured three hr after the addition of serotonin (5HT). The viable cell count was again measured three days after the cell seeding, and the survival rate was calculated based on the initial viable cell count. […]

Molecules are shown by their SMILES.

For `O=c1n(CCCN2CCN(c3cccc(Cl)c3)CC2)nc2ccccn12` [trazodone], the “Concentration at which 5HT excitotoxicity is inhibited” value is listed as “not more than 1 nM”.
